The results in this text go back to ChEMBL document CHEMBL1152801, “14 beta-O-cinnamoylnaltrexone and related dihydrocodeinones are mu opioid receptor partial agonists with predominant antagonist activity” (J Med Chem, 2009).

The chains behind the UniProt entries cited, without tags or fusion partners.
UniProt P41143, whole entry: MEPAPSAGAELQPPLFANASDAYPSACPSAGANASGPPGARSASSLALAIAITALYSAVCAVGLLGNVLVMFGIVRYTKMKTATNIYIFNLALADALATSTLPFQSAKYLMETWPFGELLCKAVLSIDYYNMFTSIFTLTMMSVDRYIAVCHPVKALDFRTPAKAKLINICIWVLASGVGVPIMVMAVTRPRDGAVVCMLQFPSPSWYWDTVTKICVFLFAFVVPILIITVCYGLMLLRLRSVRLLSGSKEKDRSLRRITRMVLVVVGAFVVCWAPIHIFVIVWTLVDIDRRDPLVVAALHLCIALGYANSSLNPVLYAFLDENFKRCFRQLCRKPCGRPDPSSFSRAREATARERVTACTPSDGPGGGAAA

The test has as its target Delta-type opioid receptor (Homo sapiens, UniProt P41143). The experiment in a line: Displacement of [3H]DPDPE from human delta opioid receptor expressed in CHO cells. The class given is cell-based.

Structures are written as SMILES.

The compound `O=C1CC[C@@]2(OCCCc3ccccc3)[C@H]3Cc4ccc(O)c5c4[C@@]2(CCN3CC2CC2)[C@H]1O5` yielded a Ki of 0.48 nM.
